This is an account of results in PMC11992111 (Nature Communications, 2025).

Molecules are shown by their SMILES. Residue numbers refer to the chain shown, from its start.

A word on the Kd: it is a measure of binding affinity in units of concentration. Lower therefore signals higher affinity.

Assay type in all cases: binding
One test has as its target AZG1 (Arabidopsis thaliana, UniProt Q9SRK7). The experiment in a line: ITC at pH […].
In test [1] the target is T1, AZG2 (Arabidopsis thaliana, UniProt Q84MA8).
T1 sequence (Q84MA8 1-530): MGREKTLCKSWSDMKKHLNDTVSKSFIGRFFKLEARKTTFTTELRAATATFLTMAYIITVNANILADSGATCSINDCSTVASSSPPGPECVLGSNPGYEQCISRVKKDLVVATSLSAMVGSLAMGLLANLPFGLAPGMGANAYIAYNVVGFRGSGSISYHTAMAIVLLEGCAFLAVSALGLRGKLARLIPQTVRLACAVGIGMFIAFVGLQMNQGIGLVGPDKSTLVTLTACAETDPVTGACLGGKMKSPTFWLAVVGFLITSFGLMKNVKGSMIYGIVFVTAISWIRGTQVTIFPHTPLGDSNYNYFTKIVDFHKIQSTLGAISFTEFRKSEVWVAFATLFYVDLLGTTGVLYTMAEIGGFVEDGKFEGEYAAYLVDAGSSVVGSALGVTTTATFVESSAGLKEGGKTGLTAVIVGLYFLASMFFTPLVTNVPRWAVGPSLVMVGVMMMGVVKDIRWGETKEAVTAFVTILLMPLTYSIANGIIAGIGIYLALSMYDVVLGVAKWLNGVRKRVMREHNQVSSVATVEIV
The experiment in a line: ITC at pH […].

Test [2] addresses T2, AZG2 (Arabidopsis thaliana, UniProt Q84MA8, M449A).
T2 sequence (Q84MA8 1-530 M449A): T1 sequence (Q84MA8 1-530) with M449A
Put plainly: ITC. Background: ITC needs no label: the signal is the heat of the interaction.

Regarding `C/C(=C\CNc1ncnc2[nH]cnc12)CO` [tZ, trans-zeatin], the Kd at AZG1 is 640 ± 100 nM; at AZG2 [1], 390 ± 90 nM; on AZG2 [2], “M449A, which residue is not directly involved in substrate binding, had a comparable binding affinity to the WT protein”.
